Only a part is listed here, and it is no random draw. Calls of active or inactive are those of the source. Cut-off read from the data, not from the text of the source: active = inhibition mostly above about 23% (no sharp cut-off); inactive = mostly below about 18%.

Chains of the proteins cited; added tags and fusions are not shown.
UniProt P47898, whole entry, looked up: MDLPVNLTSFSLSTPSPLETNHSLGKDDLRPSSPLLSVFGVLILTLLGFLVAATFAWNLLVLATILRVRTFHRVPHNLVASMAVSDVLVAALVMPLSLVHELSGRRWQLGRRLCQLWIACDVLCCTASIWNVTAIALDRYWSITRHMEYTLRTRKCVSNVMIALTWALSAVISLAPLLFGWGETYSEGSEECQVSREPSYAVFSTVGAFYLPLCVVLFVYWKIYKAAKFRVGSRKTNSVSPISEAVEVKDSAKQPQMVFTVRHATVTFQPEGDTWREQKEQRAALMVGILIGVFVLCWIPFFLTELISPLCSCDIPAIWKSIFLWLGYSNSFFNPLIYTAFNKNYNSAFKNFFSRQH

The assay has as its target 5-hydroxytryptamine receptor 5A (Homo sapiens) (UniProt P47898). The experiment in a line: HTR5A inverse agonists in luminescence cell assay, primary screen, counter-screen for OPRM1-OPRD1 heterodimer inverse agonist project, full-deck HTS (AID 504634).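 Note: 0% = cells with DMSO and 100% = no-cell wells with DMSO.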 To be noted: HTR5A cell line, inverse agonism, at 9.3 µM, active compounds read high. Background: Counterscreens check selectivity or assay interference.
Consider `Cn1c(=O)n(Cc2ccccc2)c(=O)c2c1nc1n2CCN1Cc1ccco1`, for which the inhibition is inactive: 11.8%.

Take `Cn1c(=O)c2c(ncn2CC(=O)N/N=C/c2ccc(Br)s2)n(C)c1=O`: the inhibition was inactive: 1.08%.

For `COC(=O)c1ccccc1NC(=O)Cn1cnc2c1c(=O)n(C)c(=O)n2C`, the inhibition is inactive: -8.17%.

As for `O=C(Cn1c(CCCO)nc2ccccc21)Nc1ccccc1-c1ccccc1`, the inhibition is inactive: -9.62%.

For the molecule `C/C(=N\NC(=O)Cn1c(C)nc2ccccc21)c1cccs1`, the inhibition was inactive: -19.7%.

Turning to `CCCNC(=O)Cn1c(=O)n(C)c2ccccc21`, the inhibition is inactive: 15.9%.

Turning to `CC(C)(C)NC(=O)Cn1c(SCC(=O)NC2CCCCC2)nc2ccccc21`, the inhibition was inactive: 2.2%.

For the molecule `CCNC(=S)N1CCn2c(nc3ccccc32)C1`, the inhibition is inactive: 8.22%.

Turning to `CC1CN(Cc2nc3c(c(=O)n(C)c(=O)n3C)n2CCN2CCOCC2)CC(C)O1` (stereo unspecified), the inhibition is inactive: 16.7%.

Consider `Cc1cc(SC(NC=O)C(Cl)(Cl)Cl)ncn1` (stereo unspecified), for which the inhibition was inactive: 7.65%.

Consider `CCc1nc2ccccc2n1CC(=O)N1CCN(S(=O)(=O)c2cccc(C(F)(F)F)c2)CC1`, for which the inhibition was inactive: 6.34%.

`O=P(Nc1ccccn1)(c1cccc2ccccc12)c1cccc2ccccc12`: the inhibition was inactive: 0.97%.

Turning to `COc1ccccc1C(=O)OCCNC(=O)Cn1cnc2c1c(=O)n(C)c(=O)n2C`, the inhibition is inactive: 20.6%.

Turning to `O=C(Cn1c(CC(=O)N2CCOCC2)nc2ccccc21)Nc1ccc2c(c1)OC(F)(F)O2`, the inhibition is inactive: -3.91%.

Consider `O=[N+]([O-])c1ccc(Nc2ccc(Oc3ccc([N+](=O)[O-])cc3[N+](=O)[O-])cc2)c([N+](=O)[O-])c1`, for which the inhibition was inactive: 2.71%.

As to `CCC(C)c1ccc2oc(-c3ccc(NC(=O)Cn4cnc5c(=O)n(C)c(=O)n(C)c54)cc3)nc2c1` (stereo unspecified), the inhibition is inactive: -8.47%.

On to `CCS(=O)(=O)c1nc2ccccc2n1CC(=O)N1CCOCC1`, for which the inhibition is inactive: 7.83%.

Turning to `COCCN1CCn2c(nc3cc(NC(=O)c4ccc(OC)cc4)ccc32)C1`, the inhibition was inactive: -0.58%.

As for `O=C(Cn1cnc2c(OCc3ccccc3)ncnc21)NCCCc1ccccc1`, the inhibition is inactive: -37.9%.

For `CCC(=O)Nc1nnc(/C=C/c2ccccc2)s1`, the inhibition is inactive: 5.51%.

On to `Cn1c(=O)c2c(ncn2CC(=O)N2CCc3ccccc3C2)n(C)c1=O`, for which the inhibition is inactive: -6.37%.

For the molecule `CCC[n+]1cn(/C(C(=S)Nc2cccc(Cl)c2C)=C(/[O-])c2ccc(OC)c(OC)c2)c2ccccc21`, the inhibition is inactive: 17.3%.

`COc1ccc(OCC(=O)N2c3ccc(C)cc3C3CN(C)CCC32)cc1` (stereo unspecified): the inhibition is inactive: -1.75%.

`O=C(CCCCCNC(=O)N1CCn2c1nc1ccccc12)NCCc1ccccc1`: the inhibition is inactive: -8.78%.

`Cc1ccc2c(c1)[C@@H]1CN(C)CC[C@@H]1N2S(=O)(=O)c1ccc([N+](=O)[O-])cc1`: the inhibition was inactive: 15.9%.

For `NNC(=O)Cn1c(-c2ccccn2)nc2ccccc21`, the inhibition is inactive: -15%.

In the case of `COc1cc(NC(=O)[C@H](C)NC(=O)N2CCn3c2nc2ccccc23)cc(OC)c1`, the inhibition was inactive: -8.29%.

As for `Cc1ccc(NC(=O)Cn2c(=S)[nH]c3ccccc32)cc1`, the inhibition was inactive: 2.19%.

Consider `Cn1c(=O)c2c(ncn2CC(=O)NCc2cccnc2)n(C)c1=O`, for which the inhibition was inactive: -14.2%.

Turning to `O=C(Cn1c(CO)nc2ccccc21)Nc1ccc2c(c1)OCCCO2`, the inhibition is inactive: -7.68%.

Take `COC(=O)C[C@H](NC(=O)Cn1cnc2c(OCc3ccccc3)ncnc21)C(=O)OC`: the inhibition is inactive: -4.67%.

Turning to `Cn1c(=O)[nH]c(=O)c2c1ncn2CCN1CCCCC1`, the inhibition is inactive: -1.15%.

Turning to `CCOC(=O)Nc1cccc([As](=O)(O)O)c1`, the inhibition is inactive: 3.74%.

Consider `O=C(Cn1cnc2ccccc21)Nc1ccc(SC(F)F)cc1`, for which the inhibition is inactive: -33.9%.

Take `CC(NC(=O)Cn1cnc2c1c(=O)n(C)c(=O)n2C)c1ccccc1` (stereo unspecified): the inhibition was inactive: -8.58%.

With `COc1ccc(CNC(=O)Cn2cnc3c(NCc4ccccc4)ncnc32)cc1`, the inhibition was inactive: 5.16%.

As for `O=C(C1CCCN(S(=O)(=O)c2cccnc2)C1)N1CCn2c1nc1ccccc12` (stereo unspecified), the inhibition is inactive: -12.7%.

`CCC(C(=O)NC1CCCCC1)n1c(SCc2cccc(C)c2)nc2ccncc21` (stereo unspecified): the inhibition was inactive: -7.27%.

On to `Cc1nc2cc(C(F)(F)F)ccc2n1CCNc1nc(-c2ccc(F)cc2)cs1`, for which the inhibition was inactive: -6.67%.

For `CCOCN(C(=O)Cn1cnc2ccccc21)c1c(C)cccc1CC`, the inhibition is inactive: -27%.

For the molecule `c1ccc(Cn2c(CNc3nc4ccccc4n3CCN3CCOCC3)nc3ccccc32)cc1`, the inhibition was inactive: -23.1%.

With `O=C(Nc1ccncc1[N+](=O)[O-])c1ccc([N+](=O)[O-])cc1[N+](=O)[O-]`, the inhibition was inactive: 5.09%.

Take `Cc1ccc2c(c1)C1CN(C)CCC1N2S(=O)(=O)c1cccc(C(F)(F)F)c1` (stereo unspecified): the inhibition was inactive: -12.6%.

As to `O=C(Cn1cnc2ccccc21)Nc1ccc(F)c(F)c1`, the inhibition is inactive: -62%.

With `COC(=O)c1cccc(NC(=O)Cn2cnc3c2c(=O)n(C)c(=O)n3C)c1`, the inhibition was inactive: -8.06%.

Consider `O=C(COc1ccccc1)OC1CN2CCC1CC2` (stereo unspecified), for which the inhibition was inactive: -32.9%.

Take `O=C(Nc1ccccc1C(F)(F)F)N1CCC(n2c(=O)[nH]c3ccccc32)CC1`: the inhibition is inactive: -22.2%.

Turning to `CC(C)[C@H](NC(=O)N1CCn2c1nc1ccccc12)C(=O)N[C@H](Cc1ccccc1)C(=O)O`, the inhibition was inactive: -8.48%.

On to `N#CCC(=O)N/N=C\c1cccc(OC/C=C/c2ccccc2)c1`, for which the inhibition is inactive: -5.15%.

As to `O=C(Cn1cnc2c(OCc3ccccc3)ncnc21)N1CCN(c2ccccn2)CC1`, the inhibition is inactive: -9.8%.

For `CSc1nc(N)nc2c1ncn2CC(=O)Nc1ccc(C)c(C)c1`, the inhibition was inactive: -11.2%.

Turning to `N=c1n(CCN2CCCCC2)c2ccccc2n1CC(=O)c1cccs1`, the inhibition is inactive: -9.4%.

Turning to `COC(=O)C[C@H](NC(=O)Cn1cnc2c(NCc3ccccc3)ncnc21)C(=O)OC`, the inhibition was inactive: -2.55%.

For the molecule `CN(C)CCn1c(NCc2ccc3c(c2)OCO3)nc2ccccc21`, the inhibition was inactive: 5.76%.

Turning to `COP1(=S)c2c(C)nn(CCC#N)c2N=C(c2ccc(F)cc2)N1C` (stereo unspecified), the inhibition is inactive: 1.01%.

On to `Cc1ccc(C)c(S(=O)(=O)N2CCN(C(=O)Cn3cnc4c3c(=O)n(C)c(=O)n4C)CC2)c1`, for which the inhibition was inactive: -21.4%.

The term inhibition denotes the drop in the measured response relative to a control, in per cent.

These data come from PubChem BioAssay AID504634 (The Scripps Research Institute Molecular Screening Center, 2011).
